Activity calls are given as the source filed them. The rule behind the calls is not given here.
Columns and labels:
[1] = target: Alpha adrenergic receptor 1A and 1B (Rattus norvegicus) (UniProt P15823+P43140); assay: Selectivity is ratio of pKi (binding affinity) of alpha-1B receptor to that of alpha-1A receptor.; assay type: protein assay
[2] = target: Alpha adrenergic receptor 1A and 1D (Rattus norvegicus) (UniProt P23944+P43140); assay: Selectivity is ratio of pKi (binding affinity) of Alpha-1D to that of alpha1A; assay type: protein assay
[3] = target: T1, Alpha-1A adrenergic receptor (Rattus norvegicus) (UniProt P43140)
T1 sequence (whole entry): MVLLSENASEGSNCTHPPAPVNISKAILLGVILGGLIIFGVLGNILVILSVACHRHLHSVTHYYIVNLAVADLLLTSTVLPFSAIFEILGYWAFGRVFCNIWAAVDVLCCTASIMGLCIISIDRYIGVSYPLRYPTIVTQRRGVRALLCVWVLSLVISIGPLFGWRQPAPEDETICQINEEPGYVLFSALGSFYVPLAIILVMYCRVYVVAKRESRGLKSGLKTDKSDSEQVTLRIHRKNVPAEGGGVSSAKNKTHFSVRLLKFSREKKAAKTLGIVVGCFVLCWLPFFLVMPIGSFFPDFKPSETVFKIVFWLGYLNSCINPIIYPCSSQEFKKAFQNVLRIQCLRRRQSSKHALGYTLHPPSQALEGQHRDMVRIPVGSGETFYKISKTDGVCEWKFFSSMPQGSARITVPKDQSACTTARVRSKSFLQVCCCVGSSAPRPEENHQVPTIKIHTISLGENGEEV

By UniProt entry, the sequences of proteins in these tests, tags left out.
UniProt P15823, whole entry, looked up: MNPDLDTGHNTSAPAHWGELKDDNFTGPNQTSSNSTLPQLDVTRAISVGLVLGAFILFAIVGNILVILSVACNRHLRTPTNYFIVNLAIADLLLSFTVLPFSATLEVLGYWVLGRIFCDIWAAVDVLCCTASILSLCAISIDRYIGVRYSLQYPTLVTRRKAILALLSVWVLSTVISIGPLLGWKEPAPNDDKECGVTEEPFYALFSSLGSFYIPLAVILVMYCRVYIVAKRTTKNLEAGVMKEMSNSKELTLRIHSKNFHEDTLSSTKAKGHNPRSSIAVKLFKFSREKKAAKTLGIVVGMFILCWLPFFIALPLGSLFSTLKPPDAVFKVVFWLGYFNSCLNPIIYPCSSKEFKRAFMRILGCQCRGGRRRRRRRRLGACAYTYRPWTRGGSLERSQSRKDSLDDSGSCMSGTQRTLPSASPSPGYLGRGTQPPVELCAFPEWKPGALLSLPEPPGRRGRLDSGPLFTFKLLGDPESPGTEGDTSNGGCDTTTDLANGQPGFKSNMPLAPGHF
UniProt P23944, whole entry, looked up: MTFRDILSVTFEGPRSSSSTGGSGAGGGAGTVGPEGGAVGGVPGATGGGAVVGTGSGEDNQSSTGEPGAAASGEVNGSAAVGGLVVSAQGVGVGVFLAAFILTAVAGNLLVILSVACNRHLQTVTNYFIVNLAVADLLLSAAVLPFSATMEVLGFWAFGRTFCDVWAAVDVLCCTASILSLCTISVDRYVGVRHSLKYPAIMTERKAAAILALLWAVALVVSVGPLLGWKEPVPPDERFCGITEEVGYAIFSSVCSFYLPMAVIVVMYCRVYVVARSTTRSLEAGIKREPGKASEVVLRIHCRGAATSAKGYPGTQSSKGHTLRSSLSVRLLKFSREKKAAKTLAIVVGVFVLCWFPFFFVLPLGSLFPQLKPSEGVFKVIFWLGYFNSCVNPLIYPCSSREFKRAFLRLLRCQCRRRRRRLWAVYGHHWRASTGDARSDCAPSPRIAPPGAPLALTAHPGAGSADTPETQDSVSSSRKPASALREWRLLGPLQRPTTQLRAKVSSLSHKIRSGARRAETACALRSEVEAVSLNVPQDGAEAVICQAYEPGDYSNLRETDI
UniProt P08913, whole entry: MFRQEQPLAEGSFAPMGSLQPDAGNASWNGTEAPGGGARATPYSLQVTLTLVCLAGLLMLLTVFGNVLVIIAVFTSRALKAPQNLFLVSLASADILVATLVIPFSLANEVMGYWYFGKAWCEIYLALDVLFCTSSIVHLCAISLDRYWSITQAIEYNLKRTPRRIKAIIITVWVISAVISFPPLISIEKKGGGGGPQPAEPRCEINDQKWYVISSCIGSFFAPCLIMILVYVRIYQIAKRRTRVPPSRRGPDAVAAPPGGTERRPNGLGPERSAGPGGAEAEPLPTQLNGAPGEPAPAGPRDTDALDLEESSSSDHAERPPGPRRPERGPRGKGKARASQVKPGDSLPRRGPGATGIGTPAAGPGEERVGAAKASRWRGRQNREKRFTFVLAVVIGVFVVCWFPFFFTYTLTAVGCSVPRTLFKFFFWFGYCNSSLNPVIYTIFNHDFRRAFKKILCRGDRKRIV
UniProt P22909, whole entry: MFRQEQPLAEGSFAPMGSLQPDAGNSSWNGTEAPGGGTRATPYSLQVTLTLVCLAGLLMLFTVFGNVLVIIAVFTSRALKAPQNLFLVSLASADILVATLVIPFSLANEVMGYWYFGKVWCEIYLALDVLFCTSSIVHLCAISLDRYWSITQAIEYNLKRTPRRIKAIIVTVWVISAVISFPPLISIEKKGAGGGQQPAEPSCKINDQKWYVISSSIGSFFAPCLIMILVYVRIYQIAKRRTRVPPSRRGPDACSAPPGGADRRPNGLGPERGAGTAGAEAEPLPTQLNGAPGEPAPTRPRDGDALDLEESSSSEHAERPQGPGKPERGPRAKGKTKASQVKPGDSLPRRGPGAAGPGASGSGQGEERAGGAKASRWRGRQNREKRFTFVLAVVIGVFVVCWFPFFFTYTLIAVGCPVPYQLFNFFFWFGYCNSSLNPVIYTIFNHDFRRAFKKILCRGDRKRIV

[4] = target: Alpha-2A adrenergic receptor (Homo sapiens, UniProt P08913); assay: In vitro binding affinity towards alpha-2A adrenergic receptor of human clone in radioligand binding assay
[5] = target: Alpha-2A adrenergic receptor (Rattus norvegicus) (UniProt P22909); assay: Functional agonism to constrict tissue containing alpha-2A adrenergic receptor in rat prostatic vas deferens; assay type: tissue-based
How it was run: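 For α2A, dose–response curves measured inhibition of field-stimulated contraction of rat prostatic vas deferens. pD2 is −log EC50, the concentration giving 50% of total relaxation. Efficacy is percent relative to clonidine. Values are mean ± SEM.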

## COc1ccc2c(c1NS(C)(=O)=O)CCCC2c1c[nH]cn1 (stereo not given)
[1]
  Selectivity: 3
[2]
  Selectivity: 1
[3]
  pD2: inactive

## CC(=O)Nc1cccc2c1CCCC2c1c[nH]cn1 (stereo not given)
[4]
  Ki: 550 nM

## CCS(=O)(=O)Nc1cccc(Cc2c[nH]cn2)c1
[5]
  pD2: 5.45

From ChEMBL document CHEMBL1148329, “Synthesis and structure-activity studies on N-[5-(1H-imidazol-4-yl)-5,6,7,8-tetrahydro-1-naphthalenyl]methanesulfonamide, an imidazole-containing alpha(1A)-adrenoceptor agonist” (J Med Chem, 2004)
